# This is a selection; strong and weak results do not stand in their true shares. Results filed as inconclusive are left out. Activity calls are given as the source filed them. Calls follow the shape of the dose curve; as a rule, active = well fitted inhibition curve with a large enough effect; inconclusive = small, poorly fitted or top-dose-only effect; inactive = no such curve, though single readings can be large or run the other way.
# Protein sequences, listed by entry. Tags and fused reporters are not part of them. Residues count along the entry.
# UniProt Q96KQ7, 913-1193 limits assumed: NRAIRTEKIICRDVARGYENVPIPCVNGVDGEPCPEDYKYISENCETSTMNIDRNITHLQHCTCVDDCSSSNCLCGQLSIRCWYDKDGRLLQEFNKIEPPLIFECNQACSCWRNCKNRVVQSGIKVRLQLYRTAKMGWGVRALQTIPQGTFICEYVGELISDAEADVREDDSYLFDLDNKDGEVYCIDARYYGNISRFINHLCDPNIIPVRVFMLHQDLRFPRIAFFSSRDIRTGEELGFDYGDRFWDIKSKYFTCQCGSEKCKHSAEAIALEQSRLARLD
# Biological target: Histone-lysine N-methyltransferase EHMT2 (Homo sapiens) (UniProt Q96KQ7)
# Assay: qHTS Assay for Inhibitors of Histone Lysine Methyltransferase G9a; also: nearly all actives have a fitted effect of over 75% in size
# Settings: G9a H3K9 monomethylation, AlphaScreen, 2 h; series mostly up to 102 µM; activity, negative = inhibition: at the top concentration
# % is scaled to controls: 0 for no effect and ±100 for the full control effect.
row,Compound,"activity, negative = inhibition"
1,O=[N+]([O-])c1ccc(OP2(=O)COCCO2)cc1 (configuration not stated),inactive: -8.24%
2,COc1ccc(OP(C)(=O)Nc2cccc(Br)c2)cc1 (configuration not stated),inactive: 17.3%
3,CN(C)CCOC(=O)C(O)(c1ccccc1)C1CCCCC1 (configuration not stated),inactive: -8.38% [at 59 µM]
4,COc1ccc(NP(C)(=O)Oc2ccccc2OC)cc1 (configuration not stated),inactive: -42%
5,CP(=O)(Nc1ccc2c(c1)OCCO2)Oc1ccccc1 (configuration not stated),inactive: 8.47% [at 59 µM]
6,Cc1ccccc1NP(C)(=O)Nc1ccccc1C,inactive: 6.18% [at 59 µM]
7,CCOP(C)(=S)SCC(=O)NC(C)(CC)C(=O)O (configuration not stated),inactive: -32.4% [at 59 µM]
8,CP(=O)(Nc1ccccc1F)Oc1ccccc1 (configuration not stated),inactive: -4.52% [at 59 µM]
9,CC(C)c1ccc(OP(C)(=O)Nc2ccc(SC(F)(F)F)cc2)cc1 (configuration not stated),inactive: -8.98% [at 59 µM]
10,CCN(CC)CCCOC(=O)C(O)(c1ccccc1)C1CCCCC1 (configuration not stated),inactive: -0.85% [at 59 µM]
11,CP(=O)(Nc1ccccc1)Oc1ccc(F)cc1 (configuration not stated),inactive: -8.38% [at 0.0925 µM]
12,CCCCCOc1ccc(NP(C)(=O)Oc2ccc(Cl)cc2Cl)cc1 (configuration not stated),inactive: -0.441% [at 12.7 µM]
13,CCOC(=O)c1ccc(NP(C)(=O)Oc2ccc(F)cc2)cc1 (configuration not stated),inactive: 12.4%
14,COc1ccc(OP(C)(=O)Nc2ccc(SC(F)(F)F)cc2)cc1 (configuration not stated),inactive: 19.3%
15,CP(=O)(OCCOc1ccccc1)OCCOc1ccccc1,inactive: 13.8%
16,CP(=O)(Nc1ccc(Cl)cc1Cl)Oc1ccccc1 (configuration not stated),inactive: 1.47%
17,Cc1cc(C)cc(OP(C)(=O)Nc2cccc(C(F)(F)F)c2)c1 (configuration not stated),inactive: 10.9%
18,COc1ccccc1OP(C)(=O)Nc1ccc(C)c(C)c1 (configuration not stated),inactive: 13.7%
19,COc1ccc(OP(C)(=O)Nc2ccccc2Br)cc1 (configuration not stated),inactive: -5.93% [at 59 µM]

row,Compound,"activity, negative = inhibition"
1,Cc1c(NP(C)(=O)Oc2ccc(C(C)C)cc2)c(=O)n(-c2ccccc2)n1C (configuration not stated),inactive: -0.147% [at 59 µM]
2,CP(=O)(Nc1ccccn1)Oc1ccccc1 (configuration not stated),inactive: -31.1% [at 59 µM]
3,COc1ccccc1OP(C)(=O)Nc1ccc(C)cc1C (configuration not stated),inactive: 64.3% [at 12.7 µM]
4,CCc1ccc(OP(C)(=O)O)cc1,inactive: 2.7% [at 12.7 µM]
5,COc1ccccc1OP(C)(=O)Nc1ccc(Br)cc1 (configuration not stated),inactive: 15.4%
6,COc1ccc(OP(C)(=O)Nc2ccccn2)cc1 (configuration not stated),inactive: 4.95%
7,CC(C)(C)c1ccc(OP(C)(=O)O)cc1,inactive: 7.58% [at 12.7 µM]
8,COc1ccccc1OP(C)(=O)Nc1ccccc1Br (configuration not stated),inactive: -32%
9,CP(=O)(Nc1ccc(Cl)cc1)Oc1ccc(F)cc1 (configuration not stated),inactive: 33.2%
10,CCN(CC)CC(O)COC(=O)C(O)(c1ccccc1)C1CCCCC1 (configuration not stated),inactive: -41.1%
11,COc1ccc(OP(C)(=O)Nc2ccc(Br)cc2)cc1 (configuration not stated),inactive: 18.3% [at 59 µM]
12,COc1ccccc1OP(C)(=O)Nc1c(C)n(C)n(-c2ccccc2)c1=O (configuration not stated),inactive: 4.76%
13,OCCSCCO,inactive: -34.9% [at 2.33 µM]
14,CP(=O)(Oc1ccccc1)N1CCOC1=O (configuration not stated),inactive: 2.12% [at 59 µM]
15,CCc1ccc(OP(C)(=O)Nc2cccnc2)cc1 (configuration not stated),inactive: 12%
16,C/C1=C2N=C(/C=C3N=C(/C(C)=C4\[N-][C@@](C)([C@H]5N=C1[C@@](C)(CCC(=O)NC[C@H](C)OP(=O)([O-])O[C@@H]1[C@H](O)[C@H](n6cnc7cc(C)c(C)cc76)O[C@@H]1CO)[C@@H]5CC(N)=O)[C@](C)(CC(N)=O)[C@H]4CCC(N)=O)[C@@](C)(CC(N)=O)[C@@H]\3CCC(N)=O)C(C)(C)[C@@H]/2CCC(N)=O.[C-]#N.[Co+3],inactive: 10.6% [at 21.5 µM]
17,CC(C)OP(=O)(F)OC(C)C,inactive: -0.772% [at 12.7 µM]
18,CCOC(=O)c1ccc(NP(C)(=O)Oc2ccc(Cl)cc2)cc1 (configuration not stated),inactive: 14.6% [at 59 µM]

# Source: PubChem BioAssay AID504332 (National Center for Advancing Translational Sciences (NCATS), 2011)
